Test results as given in ChEMBL document CHEMBL1133555 (J Med Chem, 2000).

Sequences of proteins named here, by UniProt entry; tags and fusion partners are left off.
UniProt P23977, whole entry: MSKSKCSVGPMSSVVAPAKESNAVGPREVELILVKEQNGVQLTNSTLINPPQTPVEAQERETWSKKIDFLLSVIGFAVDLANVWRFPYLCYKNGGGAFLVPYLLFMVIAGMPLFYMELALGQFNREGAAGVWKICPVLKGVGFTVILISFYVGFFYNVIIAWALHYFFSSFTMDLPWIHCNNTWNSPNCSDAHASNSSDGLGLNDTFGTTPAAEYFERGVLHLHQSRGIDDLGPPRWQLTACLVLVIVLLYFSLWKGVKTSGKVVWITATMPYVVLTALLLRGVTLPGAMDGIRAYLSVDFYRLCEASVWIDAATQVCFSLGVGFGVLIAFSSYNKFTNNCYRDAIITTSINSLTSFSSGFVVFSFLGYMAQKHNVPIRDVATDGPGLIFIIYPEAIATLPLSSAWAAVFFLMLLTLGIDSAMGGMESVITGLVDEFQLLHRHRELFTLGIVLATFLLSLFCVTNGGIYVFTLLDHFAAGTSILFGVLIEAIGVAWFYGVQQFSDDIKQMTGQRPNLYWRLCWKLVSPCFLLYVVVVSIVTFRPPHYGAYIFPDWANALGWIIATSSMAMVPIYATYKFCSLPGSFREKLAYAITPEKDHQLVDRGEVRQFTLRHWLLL

Target: Sodium-dependent dopamine transporter (Rattus norvegicus, UniProt P23977)
Assay: Binding affinity for dopamine transporter (DAT) labeled with [125 I]RTI-55
Outline: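 Competition binding assay: DAT and SERT sites labelled with [125I]RTI-55, NET sites labelled with [3H]nisoxetine. Test compounds displace the radioligand from each site. Otherwise run by previously published procedures.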

Molecule CNC1CC(c2ccc(Cl)c(Cl)c2)c2ccccc21 (stereo unspecified) [INDATRALINE] has a pKi of 8.77.

pKi: −log10 of the molar value.
